For one molecule, IC50 results are on record in BindingDB's records for doi:10.1016/j.bmcl.2011.06.080 (Johnson & Johnson Pharmaceutical Research and Development, 2011).

A short description of this assay: Antagonist activity at CCR2 in human THP1 cells assessed as inhibition of MCP1-induced chemotaxis after 3 hrs.

Usually IC50 stands for the concentration needed to halve the response being measured. As for `Nc1cccnc1[C@H]1CC[C@H](N2CC(NC(=O)CNC(=O)c3cccc(C(F)(F)F)c3)C2)CC1`, the IC50 was 35 nM.
